Data as given in ChEMBL document CHEMBL1129857, “Synthesis, molecular modeling, and biology of the 1-benzyl derivative of APDC-an apparent mGluR6 selective ligand” (Bioorg Med Chem Lett, 1997).

The chains behind the UniProt entries cited, without tags or fusion partners. Where a name states a change or a piece, a line headed by the entry shows the natural chain unless it says otherwise.
UniProt P23385: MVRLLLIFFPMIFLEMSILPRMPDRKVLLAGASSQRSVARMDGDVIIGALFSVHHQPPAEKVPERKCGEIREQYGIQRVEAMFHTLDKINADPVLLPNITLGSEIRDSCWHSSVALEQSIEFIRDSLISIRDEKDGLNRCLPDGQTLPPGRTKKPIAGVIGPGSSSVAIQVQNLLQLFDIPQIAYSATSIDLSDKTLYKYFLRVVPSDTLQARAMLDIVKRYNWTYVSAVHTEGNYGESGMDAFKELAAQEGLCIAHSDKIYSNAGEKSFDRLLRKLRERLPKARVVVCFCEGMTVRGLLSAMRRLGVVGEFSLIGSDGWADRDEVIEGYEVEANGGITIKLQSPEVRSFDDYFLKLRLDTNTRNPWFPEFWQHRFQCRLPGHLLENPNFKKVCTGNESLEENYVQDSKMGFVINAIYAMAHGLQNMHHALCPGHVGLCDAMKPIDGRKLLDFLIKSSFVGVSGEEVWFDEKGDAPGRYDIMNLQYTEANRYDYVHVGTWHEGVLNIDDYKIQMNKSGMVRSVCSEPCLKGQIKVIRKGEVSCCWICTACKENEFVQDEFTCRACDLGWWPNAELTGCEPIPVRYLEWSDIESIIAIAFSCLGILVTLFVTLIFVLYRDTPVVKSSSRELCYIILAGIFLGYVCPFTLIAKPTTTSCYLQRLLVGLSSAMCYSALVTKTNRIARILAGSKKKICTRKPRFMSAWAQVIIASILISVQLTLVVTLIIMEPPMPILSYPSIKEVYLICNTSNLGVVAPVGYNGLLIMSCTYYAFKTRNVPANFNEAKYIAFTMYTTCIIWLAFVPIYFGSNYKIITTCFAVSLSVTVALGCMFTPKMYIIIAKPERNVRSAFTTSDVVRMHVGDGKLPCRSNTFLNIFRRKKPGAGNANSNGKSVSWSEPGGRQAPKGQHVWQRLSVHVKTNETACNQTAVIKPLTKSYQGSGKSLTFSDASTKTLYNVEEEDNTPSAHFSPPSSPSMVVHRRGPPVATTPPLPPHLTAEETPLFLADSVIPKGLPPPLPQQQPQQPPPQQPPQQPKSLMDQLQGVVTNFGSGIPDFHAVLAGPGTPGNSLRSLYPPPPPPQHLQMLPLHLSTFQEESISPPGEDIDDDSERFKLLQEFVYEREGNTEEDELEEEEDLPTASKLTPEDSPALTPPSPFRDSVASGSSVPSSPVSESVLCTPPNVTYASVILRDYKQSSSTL

Target: Metabotropic glutamate receptor 1 (Rattus norvegicus, UniProt P23385)
Experiment: Tested for the agonistic activity against Metabotropic glutamate receptor 1
Assay type: functional

N[C@@]1(C(=O)O)CC[C@@H](C(=O)O)C1
EC50: 42 µM
